Laboratory results from ChEMBL document CHEMBL4715910, “Insights into non-peptide small-molecule inhibitors of the PD-1/PD-L1 interaction: Development and perspective” (Bioorg Med Chem, 2021).

Amino acid sequences for entries named in this document (tags omitted).
UniProt Q9NZQ7, whole entry: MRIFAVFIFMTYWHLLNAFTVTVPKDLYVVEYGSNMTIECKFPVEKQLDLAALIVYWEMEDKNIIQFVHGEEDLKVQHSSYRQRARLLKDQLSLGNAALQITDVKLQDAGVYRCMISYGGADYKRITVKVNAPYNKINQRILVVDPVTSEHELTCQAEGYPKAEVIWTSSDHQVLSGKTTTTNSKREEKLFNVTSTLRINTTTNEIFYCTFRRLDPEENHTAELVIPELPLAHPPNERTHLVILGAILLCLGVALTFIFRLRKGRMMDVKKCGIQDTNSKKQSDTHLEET

Biological target: Programmed cell death 1 ligand 1 (Homo sapiens) (UniProt Q9NZQ7)

Molecule `Cc1c(COc2ccc(CN3CCCCC3C(=O)O)cc2Br)cccc1-c1ccccc1` (stereo unspecified) has a Tm of 44.8 °C.
